# Statin myotox sup: suppressors of statin myotoxicity in C2C12 myotubes, primary screen, cell-based, single point, plate reader. C2C12 myotubes + simvastatin, ATP luminescence, 48 h; scaled: DMSO 0, geranylgeraniol control 100. rescue of ATP level, % at 7.49 µM. 330,000 tested, 0.78% active. AID 602340, 2012;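 active means mean ATP rescue above about 67%, or every replicate alone reaching that limit, limit read from the data, passing the limit was not always enough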;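 further: myotubes were challenged with 10 µM simvastatin during compound exposure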
# N-glyco inh: increase of ERlucT glycosylation luciferase signal, primary screen, N-linked glycosylation inhibitor project, D54 ERlucT cells, luminescence, set 2. 360,000 tested, 0.23% active. D54 ERlucT glycosylation luciferase reporter, 24 h; percent of 100 nM tunicamycin response. reporter increase, % at 12.5 µM;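 active means mean luciferase reporter signal, scaled so untreated is 0 and the glycosylation-blocking control 100, at or above a set limit in every replicate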;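 further: luciferase carries N-glycosylation sites so blocking glycosylation raises the light; 0% = median of neutral control wells and 100% = median of 100 nM tunicamycin wells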
# Cneo AK release: Cryptococcus neoformans cell lysis inducers, primary screen, AK release luminescence, single concentration. C. neoformans lysis, adenylate kinase release luminescence, 4 h; normalised: neutral wells 0, clomiphene wells 100. lysis activity, % at 15 µM. 360,000 tested, 0.2% active. AID 651654, 2012;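 active means mean lysis activity across replicates of at least 80%, whatever share of replicates individually reach that level; inactive means mean lysis activity below 80%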
#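 Assay system: log-phase C. neoformans yeast / Quantity: yeast cell density of 5 × 10^6 cells/mL / Medium: fresh YPD growth medium / Compound: single dose / Timing: static 4 h at 37 °C with compound, 1 h detection / Measured by: adenylate kinase release luminescence / Read-out: lysis from increased AK signal / Benchmarks: Clomiphene as positive lysis control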
# UUG fidelity: yeast start codon fidelity modulation; AID 602363; activity score, % at 18.7 µM; S. cerevisiae UUG-firefly luciferase reporter, luminescence/redox ratio; 0.13% of 350,000 active;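 active means replicate mean at a twofold rise or more, about +100% in these data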;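 further: firefly luciferase made from a UUG start codon reports start codon fidelity; reporter light over untreated wells divided by growth signal over untreated wells; some hits fall short of that in this replicate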
# miR-122 sensor: miR-122 Renilla sensor signal increase in Huh7, primary screen, miR-122 inhibitor project, cell-based, single point, plate reader. activation (reporter increase), % at 12.5 µM. 340,000 tested, 0.3% active. Huh7 miR-122 Renilla luciferase sensor, 48 h; neutral wells = 0, positive control = 100;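 active means mean replicate activation score at least 90 and every replicate individually at or above 90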;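 further: higher luciferase means less miR-122 activity so hits act as miR-122 inhibitors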
# Starred values were filed as active, the others as inactive; . = not tested or not shown; [ ] = another dose, or the depositor's remark. Sampled rows, rich in hits. Any-hit rate of the full collection: about 1.2%.
SMILES,Statin myotox sup,N-glyco inh,Cneo AK release,UUG fidelity,miR-122 sensor
COc1cccc(CC2CC(=O)N(CCc3ccc4c(c3)OCO4)C2=O)c1 (stereo not drawn),11.5,2.0,-3.5,-6.9,-3.8
C[C@@H]1CN([C@H](C)CO)S(=O)(=O)c2ccc(C3=CCCC3)cc2O[C@@H]1CN(C)C(=O)Cc1ccncc1,-61.9,.,-2.0,6.2,-33.0[16.7 µM]
Cc1ccc(Sc2ccc(/C=C3/C(=O)NN(c4ccccc4)C3=O)o2)cc1,.,7.8,.,.,.
O=C1NN(c2ccccc2)C(=O)/C1=C/c1ccc(Sc2ccc(Cl)cc2)o1,18.5,35.0*,.,.,3.0
O=C(CN1C(=O)C(=O)N(C2CCCC2)C1=O)Nc1ccc(OC(F)F)cc1,2.0,2.5,1.2,-9.3,.
CC(C)NC(=O)Nc1cccc2c1O[C@@H](CN(C)C)[C@@H](C)CN([C@@H](C)CO)C2=O,9.1,.,-2.6,.,7.7[16.7 µM]
CC(C)NC(=O)Nc1cccc2c1O[C@@H](CN(C)C(=O)Nc1ccccc1)[C@@H](C)CN([C@@H](C)CO)C2=O,10.4,.,103.0*,22.4,15.8[16.7 µM]
CC(C)NC(=O)Nc1cccc2c1O[C@H](CN(C)C)[C@H](C)CN([C@H](C)CO)C2=O,-7.1,.,99.9*,.,31.9[16.7 µM]
CC(C)NC(=O)Nc1cccc2c1O[C@H](CN(C)C(=O)Nc1ccccc1)[C@H](C)CN([C@@H](C)CO)C2=O,-3.0,.,5.3,4.5,-8.5[16.7 µM]
Cc1cc(C)nc(N2CCCC(C(=O)NCc3cccs3)C2)n1 (stereo not drawn),126.8*,0.6,2.7,-9.4,-7.1
Cc1ccnc(N2CCCC(C(=O)NCc3cccs3)C2)n1 (stereo not drawn),11.1,1.5,-1.3,-12.2,0.3
COc1ccc(CNC(=O)/C=C/c2cc3c(cc2Br)OCO3)cc1,85.6*,-1.2,-3.5,-16.7,-1.9
CC(C)CN(CC(C)C)S(=O)(=O)N1CCC(C(=O)NCc2ccc3c(c2)OCO3)CC1,.,1.5,.,.,.
O=C(/C=C/c1ccccc1Cl)c1ccc(O)cc1,15.6,30.4*,1.4,-5.4,7.1
O=C(/C=C/c1ccc(O)c(O)c1)c1ccccc1O,.,6.3,-4.8,-20.4,-13.2
O=C(C=Cc1ccccc1O)c1ccccc1O,2.8,33.2*,-16.4,-23.9,.
O=C(/C=C/c1ccccc1Cl)c1cccnc1,18.8,11.5,-0.8,-18.0,-7.0
CC(O)(c1cccc(F)c1)c1nc(-c2ccc(S(C)(=O)=O)cc2)cs1 (stereo not drawn),-9.5,-6.1,-4.5,-13.1,.
COCc1cn(CC[C@@H]2CC[C@H](NC(=O)Nc3ccc(C(F)(F)F)cc3)[C@H](CO)O2)nn1,10.5,.,13.0,.,.
CCOc1cc(C(=O)Nc2ccc(N3CCOCC3)cc2)cc(Br)c1OC,-25.0,31.7*,-2.0,-17.3,14.3

# Structures listed so far that have a thiophene ring, fused or not (2):
SMILES,Statin myotox sup,N-glyco inh,Cneo AK release,UUG fidelity,miR-122 sensor
Cc1cc(C)nc(N2CCCC(C(=O)NCc3cccs3)C2)n1 (stereo not drawn),126.8*,0.6,2.7,-9.4,-7.1
Cc1ccnc(N2CCCC(C(=O)NCc3cccs3)C2)n1 (stereo not drawn),11.1,1.5,-1.3,-12.2,0.3

# (next part)
SMILES,Statin myotox sup,N-glyco inh,Cneo AK release,UUG fidelity,miR-122 sensor
COc1ccc(C(=O)Nc2ccccc2N2CCOCC2)cc1Br,117.3*,1.6,-1.5,-8.6,7.8
CCC(=O)N1CCN(c2ccccc2NC(=S)NC(=O)c2cccc([N+](=O)[O-])c2)CC1,.,-4.7,.,.,.
O=C(NC(=S)Nc1ccccc1N1CCOCC1)c1cccc([N+](=O)[O-])c1,.,-6.6,258.4*,-19.5,.
O=C(O)CCC(C(=O)O)n1c(O)c(C2=c3ccccc3=NC2=O)sc1=S (stereo not drawn),111.7*,0.3,1.4,24.3,1.3
O=C(O)Cn1c(O)c(C2=c3ccccc3=NC2=O)sc1=O,1.4,0.8,0.7,-0.6,-1.8
C[C@H]1CN([C@@H](C)CO)C(=O)Cc2cc(NC(=O)CCN3CCOCC3)ccc2O[C@H]1CN(C)CC1CC1,-28.1,.,20.5,7.7,0.4[16.7 µM]
Cc1ccc(NCCc2ccc(C)nc2)cc1,0.5,0.4,-0.3,-6.3,1.7
Cc1ccc(CCNc2ccc3ccccc3c2)cn1,93.9*,-7.4,.,.,-4.4
O=C(CCN1CCCCC1)NCC[C@H]1CC[C@H](NC(=O)C2CCOCC2)[C@H](CO)O1,-7.0,.,-12.7,0.0,.
Cc1noc(C)c1NC(=O)Nc1ccc2c(c1)C(=O)N([C@H](C)CO)C[C@@H](C)[C@H](CN(C)C(=O)Nc1ccc3c(c1)OCO3)O2,-7.0,.,-3.4,-11.1,5.9[16.7 µM]
CC(C)c1ccc(N(CC(=O)NCCc2ccccc2)C(=O)c2csnn2)cc1,80.7*,-3.7,-2.4,5.3,-2.2
CN1C(=O)CC(N2CCN(c3ccccc3)CC2)C1=O (stereo not drawn),137.9*,2.1,0.4,-18.1,-2.7
CO[C@H]1CC[C@@H]2CCOc3ccc(C#N)cc3C(=O)N(C)C[C@@H](OC)[C@@H](C)C(=O)N(C)C[C@H]1O2,75.4*,.,2.7,.,.
CO[C@H]1CC[C@H]2CCOc3c(C#N)cccc3C(=O)N(C)C[C@H](c3ccccc3)CC(=O)N(C)C[C@@H]1O2,7.0,.,27.2,.,.
CO[C@@H]1CC[C@@H]2CCOc3c(C#N)cccc3C(=O)N(C)C[C@H](c3ccccc3)CC(=O)N(C)C[C@@H]1O2,10.5,.,82.9*,.,.
CO[C@H]1CC[C@H]2CCOc3ccc(C#N)cc3C(=O)N(C)C[C@H](OC)[C@@H](C)C(=O)N(C)C[C@@H]1O2,-4.2,.,4.6,.,.
CO[C@@H]1CN(C)C(=O)c2ccc(NC(=O)Cc3ccccc3)cc2OC[C@H](C)NC[C@H]1C,-6.3,.,-1.3,-4.1,-0.5[16.7 µM]
COc1cccc(-c2cccc(-c3nc(C(=O)O)cc4c3[C@H](CCO)N(S(=O)C(C)(C)C)C4)c2)c1 (stereo partly drawn),.,.,-15.4,.,.
Cn1ncc2c(O/N=C(\N)c3ccc(C(F)(F)F)cc3)ncnc21,17.9,40.9*,0.0,18.6,-33.1
Cc1ccc(C(=O)NNc2ncnc3c2cnn3C)cc1,-7.4,0.1,.,.,.

# Single entries from above.
# Result of CO[C@@H]1CN(C)C(=O)c2ccc(NC(=O)Cc3ccccc3)cc2OC[C@H](C)NC[C@H]1C under Statin myotox sup: -6.3
# Result of CO[C@@H]1CC[C@@H]2CCOc3c(C#N)cccc3C(=O)N(C)C[C@H](c3ccccc3)CC(=O)N(C)C[C@@H]1O2 under Cneo AK release: 82.9*

# Next section:
SMILES,Statin myotox sup,N-glyco inh,Cneo AK release,UUG fidelity,miR-122 sensor
COCC(=O)N(C)C[C@H]1Oc2cc(C#CCC3CCCC3)ccc2S(=O)(=O)N([C@H](C)CO)C[C@H]1C,-2.4,.,2.8,12.7,.
O=c1c2ccccc2sn1-c1ccccc1,21.8,2.8,-0.9,194.8*,3.7
O=c1c2ccccc2sn1-c1cccc(Cl)c1,-4.2,-0.5,-8.3,-5.2,-3.9
O=C(C[C@@H]1CC[C@H]2[C@@H](COC[C@H](O)CN2C(=O)Nc2ccccc2)O1)NCc1ccncn1,-29.4,.,11.9,5.0,-5.1[16.7 µM]
COc1ccccc1S(=O)(=O)N[C@H]1CC[C@@H](CCNC(=O)C2CCOCC2)O[C@@H]1CO,8.8,.,49.6,.,.
Oc1ccccc1Oc1c(F)c(F)nc(N2CCCC2)c1F,12.7,-0.9,2.8,-17.4,-3.2
CC(=O)/C=C/c1ccccc1Oc1c(F)c(F)nc(F)c1F,61.7,60.3*,-0.4,-23.9,-2.0
CCC(=O)N(C)C[C@@H]1[C@H](c2ccc(-c3ccccc3F)cc2)[C@H](CO)N1C(C)=O,2.0,.,2.8,-7.1,-41.7[16.7 µM]

# 2 of the compounds above, with bars between the fields:
SMILES | Statin myotox sup | N-glyco inh | Cneo AK release | UUG fidelity | miR-122 sensor
Oc1ccccc1Oc1c(F)c(F)nc(N2CCCC2)c1F | 12.7 | -0.9 | 2.8 | -17.4 | -3.2
CC(=O)/C=C/c1ccccc1Oc1c(F)c(F)nc(F)c1F | 61.7 | 60.3* | -0.4 | -23.9 | -2.0
